Data from US20070249501A1 (priority 2004, published 2007).

Test: Degradation of bromopicrin in soil (HPLC, GC-MS)
Conditions: 5 mg bromopicrin to 1,000 grams Rehovot sand soil; 0.5, 3 and 7 days

## O=[N+]([O-])C(Br)Br
  generation as degradation product of bromopicrin in soil: generated immediately and then dissipates to some extent
